This test concerns the target recombinant human S1P1 receptor (Homo sapiens, UniProt P21453). Kind of test: GTPγS assay to determine EC50 values. In kind it is biochemical. The note with it: agonistic activity; membrane preparations of CHO cells expressing recombinant human S1P1 receptor; 35S-GTPγS binding. A general note: Binding of GTPγS marks nucleotide exchange on a G protein.

Chains of the proteins cited; added tags and fusions are not shown.
UniProt P21453, whole entry: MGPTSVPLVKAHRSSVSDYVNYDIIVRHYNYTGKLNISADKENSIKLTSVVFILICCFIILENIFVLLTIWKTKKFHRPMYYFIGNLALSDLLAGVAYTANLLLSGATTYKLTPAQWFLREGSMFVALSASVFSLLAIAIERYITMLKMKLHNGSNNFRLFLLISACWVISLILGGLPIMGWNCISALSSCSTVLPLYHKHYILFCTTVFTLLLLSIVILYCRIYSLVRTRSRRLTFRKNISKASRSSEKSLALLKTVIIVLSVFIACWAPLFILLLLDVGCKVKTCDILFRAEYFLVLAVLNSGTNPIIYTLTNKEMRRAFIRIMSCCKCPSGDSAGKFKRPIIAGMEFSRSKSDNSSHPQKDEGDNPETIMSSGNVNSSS

Structures are written as SMILES.

As usually defined, the EC50 is the concentration at which the effect is half-maximal. As to `CCc1cc(-c2nc(-c3cc(C)c(OC[C@@H](O)CO)c(C)c3)no2)cc(C)n1`, the EC50 was 2 nM.

The values above are taken from patent US8580824B2, “Pyridin-4-yl derivatives as immunomodulating agents” (Actelion Pharmaceuticals Ltd., priority 2006, dated 2013).
